In ChEMBL document CHEMBL1129630, “Synthesis and structure-activity relationships of retinoid X receptor selective diaryl sulfide analogs of retinoic acid” (J Med Chem, 1996) one finds Kd data, which are given here for two compounds.

Sequences of proteins named here, by UniProt entry; tags and fusion partners are left off.
UniProt P11416, whole entry: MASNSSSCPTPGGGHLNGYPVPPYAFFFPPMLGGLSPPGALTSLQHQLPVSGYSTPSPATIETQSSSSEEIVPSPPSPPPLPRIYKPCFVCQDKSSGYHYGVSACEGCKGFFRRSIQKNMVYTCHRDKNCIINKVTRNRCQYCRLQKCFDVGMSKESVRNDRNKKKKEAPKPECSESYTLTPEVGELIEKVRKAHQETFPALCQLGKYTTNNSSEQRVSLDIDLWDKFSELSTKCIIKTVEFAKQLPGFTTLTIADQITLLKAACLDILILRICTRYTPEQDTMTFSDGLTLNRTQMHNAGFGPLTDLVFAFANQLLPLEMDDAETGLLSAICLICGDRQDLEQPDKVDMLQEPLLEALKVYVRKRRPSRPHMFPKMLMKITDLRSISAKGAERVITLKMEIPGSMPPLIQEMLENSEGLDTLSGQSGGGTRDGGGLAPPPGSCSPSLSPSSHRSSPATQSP

This assay has as its target Retinoic acid receptor alpha (Mus musculus, UniProt P11416). As to the kind of experiment: Dissociation constant for binding to Retinoic acid receptor alpha. The format is single protein. In a few lines:
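Competitive binding assays against each receptor subtype, with Kd values taken from competition.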

Take `CC1=C(/C=C/C(C)=C\C=C\C(C)=C\C(=O)O)C(C)(C)CCC1` [ALITRETINOIN]: the Kd (usually the free concentration of one partner at which half of the binding sites on the other are occupied at equilibrium, for simple one-to-one binding) is 7 nM. For `CC1=C(/C=C/C(C)=C/C=C/C(C)=C/C(=O)O)C(C)(C)CCC1` [TRETINOIN], the Kd is 15 nM.
